Where two headings read alike, the source gives them in different places.
Target: T1, maltose-binding protein-human aspartate N-acetyltransferase (MBP-ANAT) fusion enzyme (Homo sapiens, UniProt Q8N9F0)
T1 sequence (Q8N9F0 1-302): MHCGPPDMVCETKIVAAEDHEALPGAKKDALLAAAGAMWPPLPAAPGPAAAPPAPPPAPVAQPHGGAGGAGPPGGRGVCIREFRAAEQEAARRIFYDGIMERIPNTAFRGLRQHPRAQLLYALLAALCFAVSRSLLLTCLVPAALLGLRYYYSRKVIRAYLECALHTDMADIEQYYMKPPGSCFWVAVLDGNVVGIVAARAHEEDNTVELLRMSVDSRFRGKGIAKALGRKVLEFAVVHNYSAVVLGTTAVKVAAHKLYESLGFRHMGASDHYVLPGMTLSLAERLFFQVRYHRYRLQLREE
Assay: ANAT DTNB-based activity assay / compound library screening

`C[C@H](NCc1ccc(C(=O)O)c(C(=O)O)c1)C(=O)O` [Compound 5, N-((2-methyl)carboxymethyl)-3,4-dicarboxybenzylamine] was tested, and the “inhibition / affinity for ANAT (in words)” value (from here on “inhibition / affinity”) was “did not show any inhibition”.

In the case of `CC(C)(C)c1ccc(CN(CCC(=O)O)Cc2ccc(C(=O)O)c(C(=O)O)c2)cc1` [Compound 46], the “inhibition / affinity” value is reported as “very poor inhibitors”.

`O=C(O)CN(Cc1ccc(C(F)(F)F)cc1)Cc1ccc(C(=O)O)c(C(=O)O)c1` [Compound 26, N-(4-trifluoromethylbenzyl)-N-carboxymethyl-3,4-dicarboxybenzylamine] was tested, and the “inhibition / affinity” value was “weaker inhibitor”.

`O=C(O)CN(Cc1ccc(C(=O)O)cc1)Cc1ccc(C(=O)O)c(C(=O)O)c1` [Compound 31, N-(4-carboxybenzyl)-N-carboxymethyl-3,4-dicarboxybenzylamine] showed a Ki of 104 µM.

For `O=C(O)CCN(Cc1ccc(C(=O)O)c(C(=O)O)c1)Cc1ccccc1Br` [Compound 53], the “inhibition / affinity” value was “better inhibitors”.

With `O=C(O)CCNCc1ccc(C(=O)O)c(C(=O)O)c1` [Compound 4, N-carboxyethyl-3,4-dicarboxybenzylamine] the Ki was 1700 µM and the “inhibition / affinity” value was “modest inhibitory properties”.

With `C=CCN(CC(=O)O)Cc1ccc(C(=O)O)c(C(=O)O)c1` [Compound 11, N-allyl, N-carboxymethyl-3,4-dicarboxybenzylamine] the Ki was 1200 µM.

With `O=C(O)CN(Cc1ccc(C(=O)O)c(C(=O)O)c1)c1ccc(-c2ccccc2)cc1` [Compound 17, N-(4-biphenyl)-N-carboxymethyl-3,4-dicarboxybenzylamine] the “inhibition / affinity” value was “weak inhibitors with no enhancement in the Ki values”.

For `O=C(O)CCN(Cc1ccc(C(=O)O)c(C(=O)O)c1)Cc1ccc2ccccc2c1` [Compound 49], the Ki was 34 µM and the “inhibition / affinity” value was “great enhancement in inhibition”.

In the case of `O=C(O)CCN(Cc1ccc(Br)cc1)Cc1ccc(C(=O)O)c(C(=O)O)c1` [Compound 54], the “inhibition / affinity” value is reported as “better inhibitors”.

For “N-acetonitrile, N-carboxymethyl-3,4-dicarboxybenzylamine [Compound 12]”, the “inhibition / affinity” value was “did not confer any inhibitory properties”.

Work on `O=C(O)CN(Cc1ccccc1)Cc1ccc(C(=O)O)c(C(=O)O)c1` [Compound 13, N-benzyl, N-carboxymethyl-3,4-dicarboxybenzylamine] yielded a Ki of 420 µM.

With `CC(C)(C)c1ccc(CN(CC(=O)O)Cc2ccc(C(=O)O)c(C(=O)O)c2)cc1` [Compound 33, N-(4-t-butylbenzyl)-N-carboxymethyl-3,4-dicarboxybenzylamine] the “inhibition / affinity” value was “weak inhibitors with no enhancement in the Ki values”.

In the case of `O=C(O)CN(Cc1ccc(C(=O)O)c(C(=O)O)c1)Cc1ccccc1C(F)(F)F` [Compound 24, N-(2-trifluoromethylbenzyl)-N-carboxymethyl-3,4-dicarboxybenzylamine], the “inhibition / affinity” value is reported as “some improvement in the Ki values”.

In the case of `O=C(O)CN(CCN1CCOCC1)Cc1ccc(C(=O)O)c(C(=O)O)c1` [Compound 16, N-(ethylmorpholino)-N-carboxymethyl-3,4-dicarboxybenzylamine], the “inhibition / affinity” value is reported as “weak inhibitors with no enhancement in the Ki values”.

With `Cc1ccccc1CN(CCC(=O)O)Cc1ccc(C(=O)O)c(C(=O)O)c1` [Compound 43] the “inhibition / affinity” value was “did not show improved inhibition”.

For `O=C(O)CCN(Cc1ccc(C(F)(F)F)cc1)Cc1ccc(C(=O)O)c(C(=O)O)c1` [Compound 41], the “inhibition / affinity” value was “better inhibitors”.

For `O=C(O)CN(Cc1cccc(Br)c1)Cc1ccc(C(=O)O)c(C(=O)O)c1` [Compound 19, N-(3-bromobenzyl)-N-carboxymethyl-3,4-dicarboxybenzylamine], the “inhibition / affinity” value was “some improvement in the Ki values”.

`O=C(O)CN(Cc1ccc(C(=O)O)c(C(=O)O)c1)Cc1cccc2ccccc12` [Compound 14] gave a Ki of 115 µM.

For `CN(CC(=O)O)Cc1ccc(C(=O)O)c(C(=O)O)c1` [Compound 10, N-methyl, N-carboxymethyl-3,4-dicarboxybenzylamine], the “inhibition / affinity” value was “did not confer any inhibitory properties”.

With `Cc1cccc(CN(CCC(=O)O)Cc2ccc(C(=O)O)c(C(=O)O)c2)c1` [Compound 44] the “inhibition / affinity” value was “did not show improved inhibition”.

With `CC(=O)N(CC(=O)O)Cc1ccc(C(=O)O)c(C(=O)O)c1` [Compound 37, N-acetal-N-carboxymethyl-3,4-dicarboxybenzylamine] the Ki (read-out: Ki for ANAT) was 710 µM.

In the case of `O=C(O)CN(Cc1ccc(C(=O)O)c(C(=O)O)c1)c1ccc2ccccc2c1` [Compound 15, N-(2-naphthyl)-N-carboxymethyl-3,4-dicarboxybenzylamine], the “inhibition / affinity” value is reported as “did not improve the inhibition”.

`O=C(O)C[C@H](NC(=O)CCl)C(=O)O` [reference compound] showed a Ki of 200 µM.

In the case of `O=C(O)CN(Cc1cccc(C(F)(F)F)c1)Cc1ccc(C(=O)O)c(C(=O)O)c1` [Compound 25, N-(3-trifluoromethylbenzyl)-N-carboxymethyl-3,4-dicarboxybenzylamine], the “inhibition / affinity” value is reported as “some improvement in the Ki values”.

In the case of `O=C(O)CCN(Cc1ccc(C(F)(C(F)(F)F)C(F)(F)F)cc1)Cc1ccc(C(=O)O)c(C(=O)O)c1` [Compound 47], the “inhibition / affinity” value is reported as “very poor inhibitors”.

For `O=C(O)CN(Cc1ccc(OC(F)F)cc1)Cc1ccc(C(=O)O)c(C(=O)O)c1` [Compound 30, N-(4-difluoromethoxybenzyl)-N-carboxymethyl-3,4-dicarboxybenzylamine], the “inhibition / affinity” value was “did not result in the intended improvement in the affinity”.

In the case of `O=C(O)CN(Cc1ccc(C(=O)O)c(C(=O)O)c1)Cc1ccccc1Br` [Compound 18, N-(2-bromobenzyl)-N-carboxymethyl-3,4-dicarboxybenzylamine], the “inhibition / affinity” value is reported as “some improvement in the Ki values”.

In the case of `O=C(O)CCN(Cc1ccc(C(=O)O)c(C(=O)O)c1)Cc1ccccc1C(F)(F)F` [Compound 40], the “inhibition / affinity” value is reported as “better inhibitors”.

With `CN(CC(=O)O)Cc1cccc(C(=O)O)c1C(=O)O` [Compound 9, N-methyl, N-carboxymethyl-2,3-dicarboxybenzylamine] the Ki was 1200 µM.

For `O=C(O)c1ccc(CN[C@@H](CO)C(=O)O)cc1C(=O)O` [Compound 6, N-((2-hydroxymethyl)carboxymethyl)-3,4-dicarboxybenzylamine], the “inhibition / affinity” value was “did not show any inhibition”.

`Cc1ccc(CN(CCC(=O)O)Cc2ccc(C(=O)O)c(C(=O)O)c2)cc1` [Compound 45] was tested, and the “inhibition / affinity” value was “very poor inhibitors”.

In the case of `O=C(O)CN(Cc1ccc(C(F)(C(F)(F)F)C(F)(F)F)cc1)Cc1ccc(C(=O)O)c(C(=O)O)c1` [Compound 34, N-(4-(2-perfluoropropyl))-N-carboxymethyl-3,4-dicarboxybenzylamine], the “inhibition / affinity” value is reported as “weak inhibitors with no enhancement in the Ki values”.

With `O=C(O)CCN(Cc1ccc(C(=O)O)cc1)Cc1ccc(C(=O)O)c(C(=O)O)c1` [Compound 50] the Ki was 29 µM and the “improvement in the affinity for ANAT” value was 100 fold.
